Reference: patent US20260384418A1, “1-(SULFONYL)-N-PHENYLPYRROLIDINE-2-CARBOXAMIDES DERIVATIVES AND USE THEREOF” (published 2026)

Legend:
U2OS = test: Proliferation assay, U2OS osteosarcoma cells; conditions: inhibition of proliferation, 5 days, Methyl violet staining; concentration not given
Description: (§1) Compound INK-150.46 (or SLB-605) was assayed against several cancer cell lines in proliferation assays.
(§2) All measurements except for D283 cells were taken using an in vitro test to measure cell growth based on Methyl violet staining after 5 days of incubation with the aforementioned drug or control vehicle (DMSO). The procedure was carried out in a 96-well plate. After 1 wash with phosphate-buffered saline (PBS), cells were stained for 20 minutes at room temperature with Methyl violet (0.5% w/v in water). After 5 washes with PBS, and the addition of acetic acid (10% in water), plates were read in a spectrophotometer at 590 nm. All conditions were tested in 6 independent wells and results expressed as a mean of all replicates.

D283 = test: Proliferation assay, D283 medulloblastoma cells (direct cell counting); conditions: inhibition of proliferation, 5 days of treatment, concentration not given
Description: as §1
(§3) D283 cells assay was carried in 12-well plates. Cells were seeded in low density and incubated during 24 hours in EMEM medium. Suspended cells of each well were harvested by centrifugation of the recovered medium and returned to the wells with the correspondent treatment. After 5 days of treatment, all cells were recovered and directly counted using EVE™ Automated Cell Counter (NanoEntek).

[1] = test system: NFATc activation in HEK 293T cells; test: NFATc activation, 3×NFAT-luc dual-luciferase reporter assay in HEK 293T cells; conditions: ionomycin/PMA/CaCl2 stimulation, at least at 100, 50 and 20 μM, FIG. 1
Description: To determine the effect of compounds of formula (I) on NFATc activation, HEK 293T cells were transfected with 3×NFAT-luc reporter gene and Renilla-luc plasmid as control of gene transfection. After 24 hours, to activate the cellular CN-NFATc signaling pathway, cells were stimulated with ionomycin (lo), PMA and CaCl2 for 4 h to raise intracellular concentration of calcium. As positive control of inhibition of CN activity, cells were treated with 1 μM of CsA 30 min prior to lo/PMA/CaCl2 stimulation. Then, cells were treated with compounds of formula (I) at several concentrations for 2 hours and light units analyzed following manufacture's protocol of the dual-luciferase reporter assay system (FIG. 1, Functional effect of pair related structure compounds on NFATc activation).

[2] = test system: several cancer cell lines; test: Proliferation assays against several cancer cell lines (overall result); conditions: assayed lines RD, RH4, SKNBE2, SHSY5Y, U2OS, D283
Description: as §1, §2, §3

cancer = conditions: reference compounds used as calcineurin inhibitors; cited from earlier work

## Cc1c(Cl)cc(F)cc1S(=O)(=O)N1CCCC1C(=O)N(Cn1nnc2ccccc21)c1ccccc1 (centres unmarked)
U2OS
  Effect over U2OS: 52.0%
D283
  Effect over D283: 33.3%
[1]
  inhibition of NFATc activation: strongly inhibits NFATc activation
[2]
  inhibition of cellular proliferation (in words): good inhibition of cellular proliferation

## C=C/C=C/C[C@@H](C)[C@@H](O)[C@H]1C(=O)N[C@@H](CC)C(=O)N(C)CC(=O)N(C)[C@@H](CC(C)C)C(=O)N[C@@H](C(C)C)C(=O)N(C)[C@@H](CC(C)C)C(=O)N[C@@H](C)C(=O)N[C@H](C)C(=O)N(C)[C@@H](CC(C)C)C(=O)N(C)[C@@H](CC(C)C)C(=O)N(C)[C@@H](C(C)C)C(=O)N1C
cancer
  anti-cancer activity of reference compounds (in words): does not show anti-cancer activity
  suspected tumorigenicity of reference compounds (in words): suspected of causing tumors

## C=CC[C@@H]1/C=C(\C)C[C@H](C)C[C@H](OC)[C@H]2O[C@@](O)(C(=O)C(=O)N3CCCC[C@H]3C(=O)O[C@H](/C(C)=C/[C@@H]3CC[C@@H](O)[C@H](OC)C3)[C@H](C)[C@@H](O)CC1=O)[C@H](C)C[C@@H]2OC
cancer
  anti-cancer activity of reference compounds (in words): does not show anti-cancer activity
  suspected tumorigenicity of reference compounds (in words): suspected of causing tumors
